This data set can be described thus: in vitro. Conditions: pig.

Usually viability stands for a per cent measure of how many cells are alive, often set against a control. Higher therefore signals better survival. As for `CC1=C[C@H]2O[C@@H]3[C@H](O)C[C@](C)([C@@]2(CO)[C@H](O)C1=O)[C@]31CO1` [Deoxynivalenol, reference compound], the viability at 1.25 µM worked out at 78.8%.

Values taken from paper PMC6784148 (Toxins, 2019).
